PubChem BioAssay AID504357 (The Scripps Research Institute Molecular Screening Center, 2011)
This is a selection; strong and weak results do not stand in their true shares. Calls of active or inactive are those of the source. No stated cut-off is given here; in the data, active means inhibition above about 22% (passing the limit was not always enough); inactive means the rest.

The chains behind the UniProt entries cited, without tags or fusion partners.
UniProt P35372, whole entry, looked up: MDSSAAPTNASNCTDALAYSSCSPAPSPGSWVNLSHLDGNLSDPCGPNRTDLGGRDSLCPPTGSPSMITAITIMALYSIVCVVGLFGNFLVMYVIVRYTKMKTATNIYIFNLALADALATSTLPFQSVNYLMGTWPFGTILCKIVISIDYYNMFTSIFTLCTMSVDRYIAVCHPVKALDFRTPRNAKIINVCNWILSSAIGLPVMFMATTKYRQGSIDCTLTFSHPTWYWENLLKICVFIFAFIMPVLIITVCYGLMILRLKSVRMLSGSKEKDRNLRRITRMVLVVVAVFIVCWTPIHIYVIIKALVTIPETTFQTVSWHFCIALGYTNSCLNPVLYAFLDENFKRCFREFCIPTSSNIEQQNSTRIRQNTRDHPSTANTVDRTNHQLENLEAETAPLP
UniProt P41143, whole entry, looked up: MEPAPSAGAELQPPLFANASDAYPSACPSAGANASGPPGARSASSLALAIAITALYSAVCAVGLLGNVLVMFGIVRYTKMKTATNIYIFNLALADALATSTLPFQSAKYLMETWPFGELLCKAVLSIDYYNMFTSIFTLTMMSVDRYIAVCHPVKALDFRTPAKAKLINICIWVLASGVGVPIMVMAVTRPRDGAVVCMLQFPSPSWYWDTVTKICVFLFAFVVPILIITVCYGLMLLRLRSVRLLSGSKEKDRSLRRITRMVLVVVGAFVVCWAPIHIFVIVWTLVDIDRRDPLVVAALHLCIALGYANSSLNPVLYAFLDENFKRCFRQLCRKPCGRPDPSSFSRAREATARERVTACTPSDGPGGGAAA

Molecular target: Mu-type opioid receptor (Homo sapiens) + Delta-type opioid receptor (Homo sapiens) (UniProt P35372+P41143)
Test: inverse agonists of MOR-DOR heterodimerization, primary screen, cell-based, luminescence (AID 504357);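 further: 0% = cells with DMSO and 100% = wells without cells with DMSO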
Conditions: cell-based MOR-DOR heterodimer luminescence, inverse agonism; at 9.3 µM; active compounds read high

| Structure (SMILES) | inhibition |
| --- | --- |
| O=C(NCC1(N2CCOCC2)CCCCC1)c1cc(F)c(F)cc1Cl | inactive: 1.78% |
| COc1cc(OC)c(C(=O)NCC2(N(C)C)CCCCC2)cc1OC | inactive: 10.4% |
| CN(C)c1cccc(C(=O)NCC2(N3CCCCC3)CCCCC2)c1 | inactive: -10.4% |
| COc1ccc(CN(CCCl)CCCl)cc1Cl | inactive: 8.34% |
| CC(C)c1ccc(NC2CCN(C(=O)OC(C)(C)C)CC2)cc1 | inactive: -57.5% |
| CCCOc1ccc(C(=O)NCC2(N(C)C)CCCCC2)cc1OC | inactive: -15.6% |
| O=C(NCC1(N2CCCCC2)CCCCC1)c1cncc(Br)c1 | inactive: 9.94% |
| CN1CCC(Nc2cccc(F)c2)CC1 | inactive: 0.39% |
| O=C(NCC1(N2CCCCC2)CCCCC1)c1cccc([N+](=O)[O-])c1 | inactive: 11.5% |
| CSc1ccc(C(=O)NCC2(N3CCOCC3)CCCCC2)cc1 | inactive: 0.95% |
| N#CC1(Nc2ccccc2)CCN(CCc2ccccc2)CC1 | inactive: 10.2% |
| CCN1CCC(Nc2ccc(Cl)cc2)CC1 | inactive: 12.7% |
| O=C(NCC1(N2CCCCC2)CCCCC1)c1ccc(OC(F)F)cc1 | inactive: 10.3% |
| CC(C)c1ccc(C(=O)NCC2(N3CCOCC3)CCCCC2)cc1 | inactive: 3.49% |
| COc1ccc(NC2CCN(C(=O)OC(C)(C)C)CC2)cc1 | inactive: 9.93% |
| CN1CCN(CCOC(=O)C(O)(c2ccccc2)c2ccccc2)CC1 | inactive: 13.4% |
| O=C(NCC1(N2CCOCC2)CCCCC1)c1cc(=O)[nH]c2ccccc12 | inactive: -0.6% |
| COc1cc(C(=O)NCC2(N3CCCCC3)CCCCC2)ccc1OC(F)F | inactive: -8.48% |
| O=C(NCC1(N2CCCCC2)CCCCC1)c1cccc(C(F)(F)F)c1 | inactive: 11.9% |
| CCOC(=O)N1CCC(Nc2ccc(F)cc2)CC1 | inactive: 16.8% |
| COc1ccc(NC2CCN(CCc3ccccc3)CC2)c(OC)c1 | inactive: -10% |
| O=C(NCC1(N2CCCCC2)CCCCC1)c1ccc(F)cc1 | inactive: 9.93% |
| CCCCOc1ccc(C(=O)NCC2(N3CCOCC3)CCCCC2)cc1 | inactive: -3.64% |
| O=P1(N(CCCl)CCCl)SCCCS1 | inactive: 6.36% |
| CCOc1ccc(C)cc1CN(CCCl)CCCl | inactive: 8% |

| Structure (SMILES) | inhibition |
| --- | --- |
| O=C1CCN(Cc2ccccc2)CC1 | inactive: -2.66% |
| COc1cc(C(=O)NCC2(N(C)C)CCCCC2)ccc1OC(F)F | inactive: -57% |
| CCOC(=O)N1CCC(Nc2cccc(C)c2)CC1 | inactive: 1.99% |
| Cc1cccc(NC2(C#N)CCN(Cc3ccccc3)CC2)c1 | inactive: 3.98% |
| CSc1ccccc1C(=O)NCC1(N2CCCCC2)CCCCC1 | inactive: 9.28% |
| O=C(NCC1(N2CCCCC2)CCCCC1)c1cccs1 | inactive: 8.15% |
| O=C(NCC1(N2CCCCC2)CCCCC1)c1ccc(=O)[nH]c1 | inactive: 4.94% |
| CC(C)(C)OC(=O)N1CCC(N(C(=O)c2ccccc2)c2ccc(F)cc2)CC1 | inactive: 12.3% |
| COc1ccc(C(=O)NCC2(N3CCCCC3)CCCCC2)c(OC)c1OC | inactive: 6.79% |
| COc1ccc(C(=O)NCC2(N3CCCCC3)CCCCC2)cc1 | inactive: 10.5% |
| CCOC(=O)N1CCC(Nc2ccc(OC)cc2)CC1 | inactive: -2.33% |
| COc1ccc(Cl)cc1C(=O)NCC1(N2CCOCC2)CCCCC1 | inactive: 7.76% |
| O=C(OC1CN2CCC1CC2)C1c2ccccc2Oc2ccccc21 (centres undefined) | inactive: -0.48% |
| O=C(NCC1(N2CCCCC2)CCCCC1)c1ccc(Cl)s1 | inactive: 4.38% |
| N#CC1(Nc2ccccc2)CCN(Cc2ccccc2)CC1 | inactive: 8.41% |
| O=C(NCC1(N2CCOCC2)CCCCC1)c1cc2ccccc2o1 | inactive: -2.95% |
| Cc1cc(C)cc(N(C(=O)c2ccccc2)C2CCN(C(=O)OC(C)(C)C)CC2)c1 | inactive: -14.9% |
| O=C(NCC1(N2CCCCC2)CCCCC1)c1ccc(Cl)nc1 | inactive: -1.81% |
| CCCOc1ccc(C(=O)NCC2(N(C)C)CCCCC2)cc1 | inactive: -24.9% |
| O=C(O)C1(Nc2ccccc2)CCN(Cc2ccccc2)CC1 | inactive: -13.7% |
| CC(C)(C)OC(=O)N1CCC(Nc2ccccc2)CC1 | inactive: 8.88% |
| CN1CCC(Nc2ccc(F)c(Cl)c2)CC1 | inactive: 8.37% |
| CCOc1ncccc1C(=O)NCC1(N2CCOCC2)CCCCC1 | inactive: 8.16% |
| CN1CCC(Nc2ccc(Cl)cc2)CC1 | inactive: 5.43% |
| CCC(CO)(C(=O)OC1CN2CCC1CC2)c1ccccc1 (centres undefined) | inactive: -2.5% |

| Structure (SMILES) | inhibition |
| --- | --- |
| COc1cccc(C(=O)N(c2cc(C)cc(C)c2)C2CCN(C(=O)OC(C)(C)C)CC2)c1 | inactive: -23.9% |
| COc1cc(OC)cc(C(=O)NCC2(N3CCOCC3)CCCCC2)c1 | inactive: -6.13% |
| Cc1ccc(NC2(C#N)CCN(Cc3ccccc3)CC2)cc1 | inactive: -1.81% |
| Fc1ccccc1NC1CCN(Cc2ccccc2)CC1 | inactive: 1.36% |
| Cc1ccc(C(=O)NCC2(N3CCCCC3)CCCCC2)o1 | inactive: 8.75% |
| COc1cc(OC)cc(C(=O)NCC2(N3CCCCC3)CCCCC2)c1 | inactive: 1.88% |
| CC(=O)N(c1ccccc1)C1CCNCC1 | inactive: 17.6% |
| Cn1c(=O)[nH]cc(N(CCCl)CCCl)c1=O | inactive: 11.1% |
| CN(C)c1ccc(C(=O)NCC2(N3CCCCC3)CCCCC2)cc1 | inactive: 3.23% |
| O=C(NCC1(N2CCCCC2)CCCCC1)c1ccco1 | inactive: 9.21% |
| CCN1CCC(Nc2cccc(F)c2)CC1 | inactive: -3.09% |
| Cc1ccccc1NC1(C#N)CCN(Cc2ccccc2)CC1 | inactive: 14.7% |
| CC(C)(C)OC(=O)N1CCC(N(C(=O)c2ccccc2)c2ccc(Cl)cc2)CC1 | inactive: -4.61% |
| N#Cc1ccc(C(=O)NCC2(N3CCCCC3)CCCCC2)cc1 | inactive: 4.66% |
| Cc1cc(N(CCCl)CCCl)ccc1C=O | inactive: 13.3% |
| CCCN1CCC(Nc2cc(OC)cc(OC)c2)CC1 | inactive: -11.7% |
| c1ccc(CN2CCC(Nc3ccccc3)CC2)cc1 | inactive: 4.71% |
| CN(C)C1(CNC(=O)c2cccc(C#N)c2)CCCCC1 | inactive: 10.7% |
| COc1ccc(C(=O)NCC2(N3CCOCC3)CCCCC2)cc1OC | inactive: 1.07% |
| O=C(NCC1(N2CCOCC2)CCCCC1)c1cc(Br)ccc1Cl | inactive: -24.2% |
| COc1cc(C(=O)NCC2(N3CCOCC3)CCCCC2)cc(OC)c1C | inactive: -5.21% |
| O=C(OC1CN2CCC1CC2)C1c2ccccc2C=Cc2ccccc21 (centres undefined) | inactive: -6.03% |
| N/C(=N\O)c1c(N)no[n+]1[O-] | inactive: 8.53% |
| CCOC(=O)N1CCC(Nc2ccc(C)cc2)CC1 | inactive: 14.1% |
